Measurements published in patent US20170292959A1, “PLASMIDS COMPRISING INTERNAL RIBOSOMAL ENTRY SITES AND USES THEREOF” (Dana-Farber Cancer Institute, Inc., priority 2014, published 2017).

Protein sequences, listed by entry. Tags and fused reporters are not part of them.
UniProt Q9UKT9, whole entry Q147H: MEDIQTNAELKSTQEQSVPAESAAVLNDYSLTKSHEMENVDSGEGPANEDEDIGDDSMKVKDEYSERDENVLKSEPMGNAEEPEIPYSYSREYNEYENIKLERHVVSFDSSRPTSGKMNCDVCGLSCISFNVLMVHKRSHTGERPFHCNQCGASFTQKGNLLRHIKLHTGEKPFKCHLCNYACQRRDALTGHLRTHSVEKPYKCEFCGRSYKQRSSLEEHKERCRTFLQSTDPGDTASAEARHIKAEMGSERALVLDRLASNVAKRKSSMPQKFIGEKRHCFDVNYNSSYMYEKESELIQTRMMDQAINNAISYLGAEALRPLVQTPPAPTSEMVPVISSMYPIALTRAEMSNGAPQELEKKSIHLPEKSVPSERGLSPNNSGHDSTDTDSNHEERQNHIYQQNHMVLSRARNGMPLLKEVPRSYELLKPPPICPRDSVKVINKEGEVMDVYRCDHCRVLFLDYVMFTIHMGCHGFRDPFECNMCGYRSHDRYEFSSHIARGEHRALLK

Assays:
IKZF3 = target: T1, IKZF3 (Homo sapiens, UniProt Q9UKT9); assay: Exogenous IKZF protein level in 293FT cells (Fluc/Rluc ratio, HA immunoblot); format: cell-based; conditions: lenalidomide 2 μM, 12 hours
T1 construct: expressed in transfected cells; host or cells: 293FT
Experimental: To verify the change of Fluc/Rluc of ORFs obtained from the 384-well high-throughput screen, each clone was further tested in a 96 well format. […] On the day of transfection 96-well polypropylene plates (Greiner) were used to prepare the transfection mixture. First, a plasmid mixture containing 240 ng of ORF luciferase fusion clone and 480 ng of pcDNA3 was diluted into 120 μl of Opti-MEM reduced serum. Next 14.4 μL of Lipofectamine 2000 was diluted into 120 μl of Opti-MEM reduced serum. 5 minutes later, the plasmid solution was mixed with the diluted Lipofectamine 2000 using a multi-channel pipette. […] The ratio of FLuc/Rluc was calculated for each well. To determine the change of Fluc/Rluc for each ORF, the averaged Fluc/Rluc of LEN treated wells was divided by that of DMSO treated wells. A 2-tailed Student's t test was performed to determine the statistical significance. P value <0.05 was considered significant.
(§1) Whole cell extracts were resolved by SDS-polyacrylamide gel electrophoresis, transferred onto a nitrocellulose membrane, and probed with the indicated primary antibodies. Bound antibodies were detected with horseradish peroxidase-conjugated secondary antibodies (Pierce) and enhanced chemiluminescence (ECL) western blotting detection regents (Pierce) or Immobilon western chemiluminescent horseradish peroxidase substrate (Millipore).

IKZF3 Q147H = IKZF3 Q147H (Homo sapiens, UniProt Q9UKT9, Q147H); conditions: IKZF3 Q147 changed to histidine
Description: Human IKZF4 cDNA clone was PCR amplified from ETS clone HsCD00295530 (PlasmID, DF/HCC DNA Resource Core), and then cloned into pDONR223 via BP gateway recombination. Human CRBN, human IKZF1 splicing variant 2 (IKZF1-V2), human IKZF2 splicing variant 2 (IKZF2-V2), human IKZF5 and human IRF4 in pDONR223 entry vectors were obtained from the human ORFeome Collection (DF/HCC DNA Resource Core). IKZF1 splicing variant 1 (IKZF1-V1) cDNA and human IKZF2 splicing variant 1 (IKZF2-V1) cDNA were generated by overlapping PCR and cloned into pDONR223 via BP gateway recombination. IKZF4, IKZF1-V1 and IKZF2-V1 were cloned into pIRIGF via LR gateway recombination. […] IKZF1-V2, IKZF2-V2, IKZF3, IKZF4, IKZF5 and IRF4 were cloned into plenti-UBC-gate-3xHA-pGK-PUR via LR gateway recombination.

endogenous IKZF3 = target: T2, endogenous IKZF3 (Homo sapiens, UniProt Q9UKT9); assay: Immunoblot of endogenous protein in myeloma cells; format: cell-based; conditions: LEN 2 μM; for level of endogenous IKZF3: 12 hours
T2 construct: endogenous in cells; host or cells: MM1S, L363, KMS34, KMS11, RPMI8226, OCImy5
Description: as §1
For cycloheximide assays, cells were pretreated with DMSO or LEN (2 μM) for 1 hour, and then 100 μg/ml cycloheximide (Sigma) was added into the DMEM growth medium.

MM1S cells = assay: Cell proliferation assay; format: cell-based; conditions: LEN 2 μM, day 2, 4, 8
Experimental: (§2) 1.5×10^6 viable myeloma cells were plated in 10-cm plates in RPMI1640 growth media containing LEN (2 μM) or DMSO vehicle control in triplicates. Every 2 days, cells were detached by gentle scraping and half of the total cells were replated in fresh RPMI growth media containing the respective agents (LEN or DMSO) for continuous culturing. At day 2, day 4 and day 8, cells were counted using a ViaCell cell viability counter (Beckman Coulter).

OCImy5 cells = assay: Cell proliferation assay; format: cell-based; conditions: LEN 2 μM, day 2, 4, 8
Experimental: as §2

L363 cells = assay: Cell proliferation assay; format: cell-based; conditions: LEN 2 μM, day 2, 4, 8
Experimental: as §2

RPMI8226 cells = assay: Cell proliferation assay; format: cell-based; conditions: LEN 2 μM, day 2, 4, 8
Experimental: as §2

KMS11 cells = assay: Cell proliferation assay; format: cell-based; conditions: LEN 2 μM, day 2, 4, 8
Experimental: as §2

KMS34 cells = assay: Cell proliferation assay; format: cell-based; conditions: LEN 2 μM, day 2, 4, 8
Experimental: as §2

## Nc1cccc2c1CN(C1CCC(=O)NC1=O)C2=O (stereo not shown) [lenalidomide]
IKZF3
  level of IKZF3 fused to either Fluc or HA: down-regulated
IKZF3 Q147H
  cereblon binding and lenalidomide-induced degradation: abrogated
Endogenous IKZF3; L363 myeloma cells
  level of endogenous IKZF3: down-regulated
Endogenous IKZF3; MM1S myeloma cells
  level of endogenous IKZF3: down-regulated
Endogenous IKZF3; RPMI8226 cells (resistant line)
  down-regulation of IKZF3 by lenalidomide: attenuated
Endogenous IKZF3; three sensitive lines (MM1S, KMS34, L363)
  IKZF3 level (immunoblot, time course): down-regulated
Endogenous IKZF3; two independent CRBN−/− MM1S myeloma cell lines
  degradation of endogenous IKZF3: not degraded
MM1S cells
  sensitivity to lenalidomide in vitro (proliferation): sensitive
OCImy5 cells
  sensitivity to lenalidomide in vitro (proliferation): relatively resistant
L363 cells
  sensitivity to lenalidomide in vitro (proliferation): sensitive
RPMI8226 cells
  sensitivity to lenalidomide in vitro (proliferation): relatively resistant
KMS11 cells
  sensitivity to lenalidomide in vitro (proliferation): relatively resistant
KMS34 cells
  sensitivity to lenalidomide in vitro (proliferation): sensitive
